Some compounds may have been tested in ways that are not shown here.
Test: Solubility of buprenorphine derivatives and salt forms in dissolution medium
Details: 55° C. water bath, 60 rpm

Row | Substance | Solubility (Table 3) | Solubility (salt forms, Table 4)
1 | Buprenorphine pentanoate | 498 µg/mL | 
2 | Buprenorphine pivalate | 160 µg/mL | 
3 | Buprenorphine stearate-L-tartaric acid salt |  | 3504 µg/mL
4 | Buprenorphine hexanoate | 670 µg/mL | 
5 | Buprenorphine acetate-pantoic acid salt |  | 1546 µg/mL
6 | Buprenorphine acetate-maleic acid salt |  | 1481 µg/mL
7 | Buprenorphine stearate | 20 µg/mL | 
8 | Buprenorphine dodecanoate | 269 µg/mL | 

— patent US12522610B2 (priority 2018, dated 2026)
